Drawing on patent US20030175810A1, “Assay method and system for identification of P2Y receptor agonists and antagonists” (priority 2000, published 2003), this text covers EC50 for one substance.

The chains behind the UniProt entries cited, without tags or fusion partners. Where a name states a change or a piece, a line headed by the entry shows the natural chain unless it says otherwise.
UniProt P47900: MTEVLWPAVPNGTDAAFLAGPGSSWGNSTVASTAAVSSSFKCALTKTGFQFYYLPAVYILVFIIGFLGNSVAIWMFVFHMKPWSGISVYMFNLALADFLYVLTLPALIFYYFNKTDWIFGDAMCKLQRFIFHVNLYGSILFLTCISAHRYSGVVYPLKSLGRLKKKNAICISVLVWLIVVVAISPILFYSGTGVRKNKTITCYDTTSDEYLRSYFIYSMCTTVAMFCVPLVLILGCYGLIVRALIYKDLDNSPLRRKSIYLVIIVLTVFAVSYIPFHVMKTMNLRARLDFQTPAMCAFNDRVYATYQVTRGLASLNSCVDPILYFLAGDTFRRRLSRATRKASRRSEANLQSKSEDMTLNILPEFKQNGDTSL

The term EC50 denotes the midpoint of the concentration-response curve.

In the test the target is T1, P2Y1 receptor (Homo sapiens, UniProt P47900).
T1 construct: hexahistidine; made in house; host or cells: baculovirus / Sf9 insect cells are named only as a preferred embodiment
The test can be described thus: steady state GTP hydrolysis by purified P2Y1-R reconstituted with Gα11 and Gβ1γ2 in proteoliposomes. It is filed as biochemical. The conditions noted are these: 100 nM RGS4, FIG. 2A, read-out: EC50 of 2MeSADP for GTP hydrolysis. As for the experimental part: Purified human P2Y1-R, Gα11, and Gβ1y2 were reconstituted in phospholipid vesicles.
In a glass tube, the following lipid solutions, which are made by solubilizing the lipids in chloroform, are combined: 11 μl PE (10 mg/ml), 7 μl PS (10 mg/ml), 4 μl cholesteryl hemisuccinate (2 mM). The mixture is dried under a stream of N2 or argon to prevent oxidation. The lipids are then dissolved in a buffer containing deoxycholate at 0.4% and sonicated to ensure complete solubilization. Proteins are added sequentially: 50 pmol of the appropriate G protein α subunit, 150 pmol Gβγ and 15 pmol of P2Y receptor. The mixture is passed over a sizing column to isolate the vesicles from the single components and the detergent. […]
In a steady state embodiment of the present invention, vesicles are combined with agonists, GAP proteins γ-[^32P] labeled GTP, all in an appropriate buffer system. […] P2Y receptor-promoted activity is measured as released ^32P, which is separated from [γ-^32P]GTP after the assay is halted by transfer to ice and addition of ice cold 5% slurry or activated charcoal in 20 mM phosphoric acid. […]
The P2Y1 receptor was expressed, purified and reconstituted into vesicles as described herein. GTP hydrolysis was measured by incubation of vesicles with 2 μM [γ^32P]GTP and quantitation of released [^32P]Pi.

As for “2-methylthioadenosine 5′-diphosphate [2MeSADP]”, the EC50 came out at 220 nM.
